Amino acid sequences for entries named in this document (tags omitted).
UniProt P18054, whole entry: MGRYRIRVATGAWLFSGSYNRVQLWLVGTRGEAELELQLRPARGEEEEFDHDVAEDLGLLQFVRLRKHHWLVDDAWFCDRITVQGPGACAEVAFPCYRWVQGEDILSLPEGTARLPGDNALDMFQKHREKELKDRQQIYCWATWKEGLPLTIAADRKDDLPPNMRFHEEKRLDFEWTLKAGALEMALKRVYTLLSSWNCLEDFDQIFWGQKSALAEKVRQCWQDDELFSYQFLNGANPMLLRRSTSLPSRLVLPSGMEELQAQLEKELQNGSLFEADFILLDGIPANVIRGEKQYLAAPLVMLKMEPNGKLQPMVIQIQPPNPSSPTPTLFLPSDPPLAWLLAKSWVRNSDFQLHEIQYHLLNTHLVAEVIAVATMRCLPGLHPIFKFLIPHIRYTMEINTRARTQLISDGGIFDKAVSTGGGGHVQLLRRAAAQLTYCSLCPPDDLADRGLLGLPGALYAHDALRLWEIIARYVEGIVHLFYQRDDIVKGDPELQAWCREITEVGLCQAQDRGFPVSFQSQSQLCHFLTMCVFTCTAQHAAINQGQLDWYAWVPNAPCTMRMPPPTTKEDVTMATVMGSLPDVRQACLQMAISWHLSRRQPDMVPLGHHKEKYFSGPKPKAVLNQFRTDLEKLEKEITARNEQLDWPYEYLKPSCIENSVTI

According to publication PMC6148290, “Endogenous metabolites of vitamin E limit inflammation by targeting 5-lipoxygenase” (Nature Communications, 2018):

How the values were obtained:
[1] = system: peripheral blood mononuclear cells; assay: Cell viability of PBMC (MTT assay); type: cell-based, human; details: 24 h
[2] = system: 15-LO; assay: 15-LO product formation in A23187/AA-activated PMNL; details: at 3 µM; mean ± s.e.m., n = 3; n.i. no inhibition
[3] = γ-TE orally given at pharmacological doses; ref Jiang et al., 2007; cited from earlier work
[4] = biological target: 12-LO (Homo sapiens, UniProt P18054); assay: 12-LO product formation in A23187/AA-activated PMNL; details: at 3 µM; mean ± s.e.m., n = 3; n.i. no inhibition

SMILES	Cell viability/peripheral blood mononuclear cells, residual viability ([1]; at 1 and 10 µM (one entry for both), n.i. no inhibition)	15-LO product formation/PMNL, residual activity [2]	level in rat liver [3]	level in rat plasma [3]	12-LO product formation/PMNL, residual activity [4]	Cell viability/peripheral blood mononuclear cells, residual viability ([1]; at 1 µM)	Cell viability/peripheral blood mononuclear cells, residual viability ([1]; at 10 µM)
C/C(=C\CC/C(C)=C/CC[C@]1(C)CCc2cc(O)c(C)c(C)c2O1)CC/C=C(\C)C(=O)O	n.i.	169.2 ± 4.5 % of control	≤ 730 nM	up to 140 nM	n.i.	–	–
C/C(=C/CC/C(C)=C/CC/C(C)=C/CC[C@]1(C)CCc2cc(O)cc(C)c2O1)CO	–	174.6 ± 6.9 % of control	–	–	–	n.i.	73.5 ± 14.4 % of control
